Test results as given in patent US20260382729A1, “HETEROBIFUNCTIONAL COMPOUNDS AS p53 ACETYLATORS” (published 2026).

Columns and labels:
BxPC3 cells = assay: clonogenic assay, BxPC3
Experimental: (§1) FIG. 8. […] . GraphPad Prism 8 was used in analysis of raw data. […] . Cells were fixed and stained with crystal violet and the images are representative of two independent experiments. […] . The clonogenic assay was performed as previously described.^48 BxPC3 or NUGC-3 cells (2000 cells per well) were seeded into 12-well tissue culture plates. After 24 h, cells were treated with 0, 1, 3 and 10 μM of indicated compounds for 14 d. Cell medium was changed with fresh full medium containing indicated compounds every 72 h. The plates were then washed with PBS and stained with the solution containing 0.5% (w/v) crystal violet and 6% (v/v) glutaraldehyde for 30 min. The plates were then washed with running water until cell colonies were clear without background color and then dried at room temperature. Epson Perfection V600 Photo was used for the acquisition of the images.

NUGC-3 cells = assay: clonogenic assay, NUGC-3
Experimental: as §1, with “Right: quantification of the normalized p53K382ac level in BxPC3 cells from three independent experiments. *P<0.05, **P<0.01, ***P<0.001.” for “FIG. 8.”, “experiments. […] . The tumor-suppressive effect of MS78 in p53Y220C-harboring cancer cell lines was examined.” for “experiments.”

[1] = system: p53K382ac level in U-2 OS cells; assay: p53K382ac level, Western blot, U-2 OS; details: 0, 1, 3 and 10 μM, 24 h
Description: Right: quantification of the normalized p53K382ac level in BxPC3 cells from three independent experiments. *P<0.05, **P<0.01, ***P<0.001. […] . GraphPad Prism 8 was used in analysis of raw data. […] . Cells were fixed and stained with crystal violet and the images are representative of two independent experiments. […] . […] . Total cell lysate was used for western blots, as previously described.^47 The following primary antibodies were used in the study: Vinculin (Cell Signaling Technology [CST], 13901), p53 (CST, 2527), acetyl-p53 (lys-382) (CST, 2525), acetyl-p53 (lys-379) (CST, 2570), p21 (CST, 2947), p300 (CST, 86377), p53 polyclonal antibody (Proteintech, 10442-1-AP). Blots were imaged using fluorescence-labeled secondary antibodies on LI-COR Odyssey CLx Imaging Systems.

[2] = system: PNT2 normal prostate cells; assay: cytotoxicity / cell viability in normal prostate cell line PNT2; details: read-out: GI50 (printed G150); PNT2, 72 h
Experimental: . […] . FIG. 14. […] . PNT2 cells were treated with the indicated compounds at the indicated concentrations for 72 h. The mean value SD for each concentration point (in technical triplicates from three biological experiments) is shown in the bar graph.
The cell viability assay was performed as previously described.^48 Briefly 5×10^4 cells were seeded per well into 96-well microplates. After 24 h, cells were treated with 3-fold serially diluted compounds in triplicate for 72 h. Cell viability was evaluated using WST-8 reagent (CK04, Dojindo). Absorbance signals were obtained with Infinite F PLEX plate reader (TECAN, Morrisville, NC) at 450 nm with 690 nm as reference wavelength after 3 h incubation at 37 °C. GraphPad Prism 8 was used in the analysis of GI50 values from the data of three independent experiments.

[3] = system: gene expression in NCI-H1299 p53Y220C cells; assay: RNA-seq, NCI-H1299 isogenic cell lines
Experimental: FIG. 9. The p53Y220C AceTAC MS78 induces downstream signaling of canonical and non-canonical p53 pathways. (A) Heatmap enrichment in high confidence p53-target genes. NCI-H1299 p53-null and p53Y220C cell lines were treated with DMSO or 10 M of MS78 for 24 h in quadruplicate. […] . […] .
FIG. 16. […] . NCI-H1299 p53-null and p53Y220C stable cells were treated with DMSO or 10 μM of MS78 for 24 h in quadruplicates. Cells were washed three times using ice-cold 1×PBS and subsequently pelleted by centrifuging at 12,000 rpm at 4 °C. The pellet was flash frozen and sent to Azenta Life Sciences for further studies. The total RNA in 16 samples were extracted using Qiagen RNeasy Plus Mini Kit according to the protocols in the RNeasy Plus Mini Handbook published by Qiagen. RNA-seq libraries were constructed from the PolyA selected mRNA using the TruSeq RNA sample preparation guide (Illumina) and paired-end 150 base pairs sequencing on a HiSeq2500 system (Illumina) was performed at Azenta Life Sciences. The raw data in FASTQ format was analyzed as previously described.^50
After quality control of FASTQ files using the FASTQC tool (version 0.11.7) (http://www.bioinformatics.babraham.ac.uk/projects/fastqc/), we trimmed low-quality bases (Phred<10) and adapter sequences and then discarded short reads (length <60 nt) using the bbduk tool (version 37.53) (https://jgi.doe.gov/data-and-tools/bbtools/bb-tools-user-guide/). When either forward or reverse of a paired-end read were discarded, we discarded the complete paired-end read. We quantified the expression of transcripts using cleaned paired-end reads with the Salmon tool (version 0.9.1)^51 using the human reference transcriptome from The Cancer Genome Atlas (TCGA; […] . We identified as differential expressed between two conditions when the P value adjusted was at 5% and log 2(fold change) was more than 1. The heatmap was drawn using the R ComplexHeatmap library (version 2.14.0). We next performed GSEA to capture pathways perturbed towards both directions simultaneously using the 22.454 ranked genes identified in our dataset and annotated in ENSEMBL (version 94) against the 343 p53 target genes listed in previously reported study^39 using GSEAPreranked (version 4.3.2.; number of permutations=1000, no collapse) and the KEGG pathways using R GAGE (version 2.48.0).

CCn1c2ccc(CNCCOCCOCCOCCn3cc(COc4ccc(CCc5nc6cc(-c7c(C)noc7C)ccc6n5CCN5CCOCC5)cc4F)nn3)cc2c2ccc(-c3cc(C)cs3)cc21
clonogenicity (BxPC3 cells): marked reduction in clonogenicity | clonogenicity (NUGC-3 cells): marked reduction in clonogenicity | p53K382ac level [1]: did not alter the p53K382ac level | GI50 [2]: > 10 µM | normalized enrichment score (NES), 343 high-confidence p53 target genes ([3]; 10 μM in p53Y220C vs DMSO in p53Y220C, DMSO in p53-null and MS78 in p53-null, Q-value=0.045): 1.32 | homologous recombination, base excision repair and DNA replication pathway proteins ([3]; KEGG, 10 μM, 24 h, vs DMSO): downregulation | protein processing in endoplasmic reticulum (ER) ([3]; KEGG, 10 μM, 24 h, vs DMSO): upregulation | normalized enrichment score (NES), 343 high-confidence p53-target genes ([3]; NCI-H1299 p53Y220C, 10 μM vs DMSO, 24 h, q-value<0.01): 1.52 | BAX, PUMA (BBC3) and NOXA (PMAIP1) gene expression ([3]; RNA-seq, 10 μM, 24 h): no significant upregulation | DDR genes (ATM, ATR, CHEK1/2) expression ([3]; RNA-seq, 10 μM, 24 h): downregulation | E2F1, CDC25A, CDK1 and CDK4 gene expression ([3]; RNA-seq, 10 μM, 24 h): p53-dependent repression | HMOX1 and NUPR1 gene expression ([3]; RNA-seq, 10 μM, 24 h): upregulation | cell-cycle arrest genes (GADD45A, BTG1) expression ([3]; RNA-seq, 10 μM, 24 h): upregulation | heat shock protein genes (HSPA5, DNAJB1, HSP1A1/B) expression ([3]; RNA-seq, 10 μM, 24 h): upregulation | p21 gene (CDKN1A) expression ([3]; RNA-seq, 10 μM, 24 h): upregulation | log 2 fold change of TRAIL genes (TNFRSF10A, TNFRSF10B, TNFRSF10D) ([3]; RNA-seq, 10 μM, 24 h, p-value<0.05): > 2 | TRAIL gene induction ([3]; RNA-seq, TRAIL-R1, TRAIL-R2, TRAIL-R4, 10 μM, 24 h): statistically significant induction | p53Y220C-specific differential gene expression ([3]; p53Y220C vs p53-null cells and DMSO controls, 10 μM, 24 h): upregulated TRAIL and key ferroptosis genes while downregulating the DDR pathway only in the NCI-H1299 p53Y220C cell line
